Tests used:
[1] = Plasma and brain pharmacokinetics after intraperitoneal administration; settings: Scn1a^WT/WT mice
[2] = system: hyperthermia-induced seizures in Scn1a^A1783V/WT mice; settings: CBD 135 mg/kg alone; cited from earlier work
[3] = Double (CLB 5 mg/kg + VPA 75 mg/kg) ip
[4] = Triple (CLB 5 + VPA 75 + STP 100 mg/kg) ip
[5] = Double (CLB 5 mg/kg + VPA 75 mg/kg) ip, plasma
[6] = Triple (CLB 5 + VPA 75 + STP 100 mg/kg) ip, plasma

| Structure (SMILES) | Brain AUC0-inf [1, 3] | Brain Cmax [1, 3] | Cmax ([1]; Scn1a^WT/WT, mouse, in vivo, ip, Plasma Cmax, Double (CLB 5 mg/kg + VPA 75 mg/kg) ip, plasma) | Brain AUC0-inf [1, 4] | Brain Cmax [1, 4] | Protection against hyperthermia-induced seizures [2] | Brain t1/2 [1, 3] | Plasma AUC0-inf [1, 5] | Plasma Cmax [1, 5] | Plasma t1/2 [1, 5] | Brain t1/2 [1, 4] | Plasma AUC0-inf [1, 6] | Plasma Cmax [1, 6] | Plasma t1/2 [1, 6] |
| --- | --- | --- | --- | --- | --- | --- | --- | --- | --- | --- | --- | --- | --- | --- |
| CN1C(=O)CC(=O)N(c2ccccc2)c2cc(Cl)ccc21 [CLB, clobazam, reference compound] | 0.637 µg·h/g | 0.76 µg/g | 540 ng/mL | 7.69 µg·h/g | 2.12 µg/g | – | – | – | – | – | – | – | – | – |
| C=C(C)[C@@H]1CCC(C)=C[C@H]1c1c(O)cc(CCCCC)cc1O [CBD, cannabidiol] | – | – | – | – | – | failed to increase temperature thresholds | – | – | – | – | – | – | – | – |
| O=C1CC(=O)N(c2ccccc2)c2cc(Cl)ccc2N1 [N-CLB, N-desmethylclobazam] | 5.13 µg·h/g | 0.788 µg/g | – | 16.3 µg·h/g | 1.22 µg/g | – | 3.3 h | 3610 ng·h/mL | 567 ng/mL | 2.61 h | 11.2 h | 7130 ng·h/mL | 880 ng/mL | 3.83 h |
